These are literature values, as cited in article PMC4525192 (European Journal of Nuclear Medicine and Molecular Imaging, 2014).

For the series the following is noted: in vivo.

B1: 90Y-Zevalin: 90Yttrium-ibritumomab tiuxetan (title of ref 40) (conjugate, chains of the INN, looked up)
heavy: QAYLQQSGAELVRPGASVKMSCKASGYTFTSYNMHWVKQTPRQGLEWIGAIYPGNGDTSYNQKFKGKATLTVDKSSSTAYMQLSSLTSEDSAVYFCARVVYYSNSYWYFDVWGTGTTVTVSAPSVYPLAPVCGDTTGSSVTLGCLVKGYFPEPVTLTWNSGSLSSGVHTFPAVLQSDLYTLSSSVTVTSSTWPSQSITCNVAHPASSTKVDKKIEPRGPTIKPCPPCKCPAPNLLGGPSVFIFPPKIKDVLMISLSPIVTCVVVDVSEDDPDVQISWFVNNVEVHTAQTQTHREDYNSTLRVVSALPIQHQDWMSGKEFKCKVNNKDLPAPIERTISKPKGSVRAPQVYVLPPPEEEMTKKQVTLTCMVTDFMPEDIYVEWTNNGKTELNYKNTEPVLDSDGSYFMYSKLRVEKKNWVERNSYSCSVVHEGLHNHHTTKSFSR
light: QIVLSQSPAILSASPGEKVTMTCRASSSVSYMHWYQQKPGSSPKPWIYAPSNLASGVPARFSGSGSGTSYSLTISRVEAEDAATYYCQQWSFNPPTFGAGTKLELKRADAAPTVFIFPPSDEQLKSGTASVVCLLNNFYPREAKVQWKVDNALQSGNSQESVTEQDSKDSTYSLSSTLTLSKADYEKHKVYACEVTHQGLSSPVTKSFN
modifications: tiuxetan chelator, 90Y
B1: the “Mean latency of MDS/AML” value is recorded as 4.8 years and the “Patients with MDS/AML during long-term follow-up” value is reported as 4.2%.
